The chains behind the UniProt entries cited, without tags or fusion partners. Residues count along the entry.
UniProt Q9GZT9, 181-426: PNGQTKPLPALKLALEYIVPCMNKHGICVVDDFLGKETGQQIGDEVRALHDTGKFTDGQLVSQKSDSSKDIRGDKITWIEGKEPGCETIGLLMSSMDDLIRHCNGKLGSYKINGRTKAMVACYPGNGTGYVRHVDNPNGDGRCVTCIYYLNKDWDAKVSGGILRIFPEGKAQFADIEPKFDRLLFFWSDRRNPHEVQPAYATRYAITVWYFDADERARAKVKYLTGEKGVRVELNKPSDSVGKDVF

According to article PMC6235002, “Born to sense: biophysical analyses of the oxygen sensing prolyl hydroxylase from the simplest animal Trichoplax adhaerens” (Hypoxia, 2018):

Key:
HsPHD2^181-426 [1] = target: T1, HsPHD2^181-426 (Homo sapiens, UniProt Q9GZT9); parameters: compared to the truncated human PHD isoform 2 (HsPHD2^181-426); method as in PMID 25120187; conditions: read-out: Km (2OG), previous studies; cited from earlier work
HsPHD2^181-426 [2] = target: T1, HsPHD2^181-426; conditions: pH 7.5
Method: Notes: (A) Sequence alignment of TaHIFa, HsHIFa, and substrates of PHD-like enzymes in Dictyostelium discoideum (DdSkp1) and Pseudomonas putida (PpEF-Tu). […] Peptide hydroxylation was analyzed by MALDI-MS; the apparent non-enzymatic Met oxidation was subtracted. Data were fitted with the Michaelis-Menten equation using GraphPad Prism® (errors are indicated as standard deviations, n=3).

## O=C(O)CCC(=O)C(=O)O [2OG, 2-oxoglutarate]
HsPHD2^181-426 [1]
  Km: 13 ± 2 µM
HsPHD2^181-426 [2]
  2OG decarboxylation in presence of substrate: strongly increased in presence of substrate
